ChEMBL document CHEMBL1158469 (J Med Chem, 2009)
Active and inactive are the calls of the source. The rule behind the calls is not given here.

Sequences of proteins named here, by UniProt entry; tags and fusion partners are left off.
UniProt Q07817, whole entry: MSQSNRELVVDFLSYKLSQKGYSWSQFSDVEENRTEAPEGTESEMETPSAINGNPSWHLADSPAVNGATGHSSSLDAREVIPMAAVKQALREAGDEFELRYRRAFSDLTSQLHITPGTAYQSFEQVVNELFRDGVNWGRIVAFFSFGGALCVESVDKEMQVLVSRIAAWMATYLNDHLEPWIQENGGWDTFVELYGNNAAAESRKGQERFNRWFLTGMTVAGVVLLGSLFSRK

Target: Bcl-2-like protein 1 (Homo sapiens) (UniProt Q07817)
Experiment: Inhibition of Bcl-xL at 200 uM by 1D 1H NMR binding assay

Row | SMILES | Activity
1 | CCc1ccc(CCNC(=O)c2c(O)c(O)cc3c(O)c(-c4c(C)cc5c(C(=O)NCCc6ccc(CC)cc6)c(O)c(O)cc5c4O)c(C)cc23)cc1 | Active
2 | Cc1cc2c(C(C)C)c(O)c(O)cc2c(O)c1-c1c(C)cc2c(C(C)C)c(O)c(O)cc2c1O [APOGOSSYPOL] | Active
